Results: ChEMBL document CHEMBL1138606, “The discovery of tropane derivatives as nociceptin receptor ligands for the management of cough and anxiety” (Bioorg Med Chem Lett, 2009)

Sequences of proteins named here, by UniProt entry; tags and fusion partners are left off. A change or cut given only in a name is not applied to a line headed by its entry.
UniProt P41146: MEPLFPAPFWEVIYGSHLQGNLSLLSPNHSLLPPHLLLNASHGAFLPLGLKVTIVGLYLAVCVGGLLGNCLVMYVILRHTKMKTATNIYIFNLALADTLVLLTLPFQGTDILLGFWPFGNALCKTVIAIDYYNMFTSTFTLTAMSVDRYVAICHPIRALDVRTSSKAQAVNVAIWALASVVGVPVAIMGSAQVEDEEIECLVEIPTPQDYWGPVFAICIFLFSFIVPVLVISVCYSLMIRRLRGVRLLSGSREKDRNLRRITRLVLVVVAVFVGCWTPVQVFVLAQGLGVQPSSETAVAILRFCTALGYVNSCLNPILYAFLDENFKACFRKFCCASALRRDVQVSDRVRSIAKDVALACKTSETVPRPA
UniProt P41145: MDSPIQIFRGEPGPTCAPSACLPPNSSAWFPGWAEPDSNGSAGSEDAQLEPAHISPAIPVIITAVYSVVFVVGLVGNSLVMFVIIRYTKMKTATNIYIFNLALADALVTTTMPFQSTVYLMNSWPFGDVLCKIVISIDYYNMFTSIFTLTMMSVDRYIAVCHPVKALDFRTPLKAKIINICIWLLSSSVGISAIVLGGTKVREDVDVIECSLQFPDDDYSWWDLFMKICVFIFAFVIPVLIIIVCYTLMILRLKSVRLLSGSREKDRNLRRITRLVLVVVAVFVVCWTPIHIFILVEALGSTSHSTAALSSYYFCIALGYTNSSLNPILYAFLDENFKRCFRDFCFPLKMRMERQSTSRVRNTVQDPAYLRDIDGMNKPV
UniProt P41143, whole entry, looked up: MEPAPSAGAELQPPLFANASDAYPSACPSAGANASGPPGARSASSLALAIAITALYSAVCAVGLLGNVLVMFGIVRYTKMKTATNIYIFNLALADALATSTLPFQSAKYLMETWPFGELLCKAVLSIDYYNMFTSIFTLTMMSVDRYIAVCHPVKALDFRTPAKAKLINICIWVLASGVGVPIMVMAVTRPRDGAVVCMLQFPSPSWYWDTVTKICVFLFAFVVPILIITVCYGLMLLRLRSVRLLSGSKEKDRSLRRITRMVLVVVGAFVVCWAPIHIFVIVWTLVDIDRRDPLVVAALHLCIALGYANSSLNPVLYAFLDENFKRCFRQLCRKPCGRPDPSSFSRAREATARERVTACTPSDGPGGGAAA

Legend:
Nociceptin receptor [1] = target: T1, Nociceptin receptor (Homo sapiens, UniProt P41146); settings: cho
Nociceptin receptor [2] = target: T1, Nociceptin receptor; test: Agonist activity at human NOP assessed as stimulation of GDP-induced [35S]GTPgammaS binding
[3] = target: Kappa-type opioid receptor (Homo sapiens, UniProt P41145); settings: cho
[4] = target: Delta-type opioid receptor (Homo sapiens, UniProt P41143); settings: cho

Work on `NC(=O)C1(c2ccccc2)CC2CCC(C1)N2C(c1ccccc1Cl)c1ccccc1Cl` (centres undefined) yielded a Ki (Nociceptin receptor [1]) of 1.7 nM, an EC50 (Nociceptin receptor [2]) of 6 nM and a Ki [3] of 268 nM. For the same compound, the Ki [4] was 2330 nM.
